Measured values taken from patent US11214542B2, “Histone demethylase inhibitors” (CELGENE QUANTICEL RESEARCH, INC., priority 2012, dated 2022).

Test system: KYSE-150 esophageal carcinoma cell line
Assay: Cell proliferation assay, BrdU incorporation ELISA after 168 hr compound incubation
Format: cell-based, human
Conditions: KYSE-150 cells, read-out: Cellular IC50

Substance: 3-{[(6-chloro-1-hydroxy- 1,2,3,4-tetrahydronaphthalen- 1-yl)methyl]amino}pyridine- 4-carboxylic acid [Example 67]
- IC50: 1 to 10 µM
